Experiments:
[1] = Pharmacokinetics of hydrocodone prodrugs PO to dogs and effect of co-administered Compound 109 (Example 47); conditions: dogs PO
[2] = Pharmacokinetics following PO administration of hydrocodone prodrugs to rats (Example 45); conditions: hydrocodone in rat plasma, dose per compound as in Table 10 (24-30 μmol/kg)
[3] = 1 dose unit: KC-40 0.4 mg/kg + Compound 109 0.08 mg/kg ([…])
[4] = 4 dose units: KC-40 […] + Compound 109 0.32 mg/kg (0.56 μmol/kg)
[5] = 10 dose units: KC-40 4 mg/kg (4.9 μmol/kg) + Compound 109 0.8 mg/kg ([…])
[6] = KC-40 0.1 mg/kg (0.1 μmol/kg), no Compound 109
[7] = KC-40 0.4 mg/kg (0.5 μmol/kg), no Compound 109
[8] = KC-40 […] (2.0 μmol/kg), no Compound 109

Substance: N-(hydrocodone-6-enol-carbonyl)-(2-methylamino)piperidine-4-carboxylate]-L-arginine-glycine-acetate [Compound KC-40]
- HC Cmax ± sd [1, 3]: 12.9 ± 4.8^ ng/mL
- Tmax ± sd [1, 3]: 56.3 ± 7.8 min
- HC Cmax ± sd [1, 4]: 23.3 ± 12 ng/mL
- Tmax ± sd [1, 4]: 150 ± 34.8 min
- HC Cmax ± sd [1, 5]: 13.2 ± 7.6 ng/mL
- Tmax ± sd [1, 5]: 300 ± 156 min
- HC Cmax ± sd [1, 6]: 4.12 ± 1.2 ng/mL
- Tmax ± sd [1, 6]: 25 ± 5.76 min
- HC Cmax ± sd [1, 7]: 13.2 ± 2.7 ng/mL
- Tmax ± sd [1, 7]: 37.5 ± 8.4 min
- HC Cmax ± sd [1, 8]: 66.5 ± 8.1 ng/mL
- Tmax ± sd [1, 8]: 27.5 ± 5.04 min
- HC Cmax ± sd [2]: 5.86 ± 1.8 ng/mL
- Tmax ± sd [2]: 25 ± 5.76 min

Reference: US20160002291A1, “Active Agent Prodrugs with Heterocyclic Linkers” (Signature Therapeutics, Inc., priority 2011, published 2016)
